This data set is described as follows: in vitro. The following applies: human, microsomes.

This is an account of results in ChEMBL document CHEMBL4304746, “Design, Synthesis, and Preclinical Efficacy of Novel Nonretinoid Antagonists of Retinol-Binding Protein 4 in the Mouse Model of Hepatic Steatosis” (J Med Chem, 2019).

Molecule `O=C(O)c1ccccc1NC(=O)N1CCC(c2ccccc2C(F)(F)F)CC1` showed an amount remaining at 0.5 h, 10 µM of 3%.
